Measurements as given in ChEMBL document CHEMBL1152600, “Dibenzazecine scaffold rebuilding--is the flexibility always essential for high dopamine receptor affinities?” (Bioorg Med Chem, 2009).

Protein sequences, listed by entry. Tags and fused reporters are not part of them.
UniProt P14416, whole entry: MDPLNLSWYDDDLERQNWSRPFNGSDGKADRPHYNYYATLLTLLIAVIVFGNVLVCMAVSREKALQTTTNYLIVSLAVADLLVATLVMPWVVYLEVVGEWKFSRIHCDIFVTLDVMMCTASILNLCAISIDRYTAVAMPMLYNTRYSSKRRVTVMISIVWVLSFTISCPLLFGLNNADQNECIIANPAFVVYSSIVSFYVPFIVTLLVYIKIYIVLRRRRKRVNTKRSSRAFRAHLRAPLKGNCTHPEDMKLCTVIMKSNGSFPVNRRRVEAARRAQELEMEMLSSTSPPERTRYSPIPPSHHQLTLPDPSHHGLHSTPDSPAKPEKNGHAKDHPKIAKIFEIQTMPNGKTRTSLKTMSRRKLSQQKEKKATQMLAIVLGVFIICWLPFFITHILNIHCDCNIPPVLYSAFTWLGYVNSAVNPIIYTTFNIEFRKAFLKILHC
UniProt P21917, whole entry: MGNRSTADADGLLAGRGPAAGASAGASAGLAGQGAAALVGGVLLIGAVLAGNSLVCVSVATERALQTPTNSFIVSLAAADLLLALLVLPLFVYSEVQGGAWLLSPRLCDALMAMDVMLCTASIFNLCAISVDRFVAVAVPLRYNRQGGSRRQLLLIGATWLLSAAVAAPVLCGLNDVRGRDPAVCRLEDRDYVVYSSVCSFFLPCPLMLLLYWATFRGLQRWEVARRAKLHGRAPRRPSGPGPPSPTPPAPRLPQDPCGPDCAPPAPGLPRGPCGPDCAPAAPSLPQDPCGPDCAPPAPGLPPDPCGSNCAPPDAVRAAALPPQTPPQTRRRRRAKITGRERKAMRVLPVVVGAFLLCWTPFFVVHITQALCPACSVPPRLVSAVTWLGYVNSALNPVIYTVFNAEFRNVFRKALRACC
UniProt P21918, whole entry: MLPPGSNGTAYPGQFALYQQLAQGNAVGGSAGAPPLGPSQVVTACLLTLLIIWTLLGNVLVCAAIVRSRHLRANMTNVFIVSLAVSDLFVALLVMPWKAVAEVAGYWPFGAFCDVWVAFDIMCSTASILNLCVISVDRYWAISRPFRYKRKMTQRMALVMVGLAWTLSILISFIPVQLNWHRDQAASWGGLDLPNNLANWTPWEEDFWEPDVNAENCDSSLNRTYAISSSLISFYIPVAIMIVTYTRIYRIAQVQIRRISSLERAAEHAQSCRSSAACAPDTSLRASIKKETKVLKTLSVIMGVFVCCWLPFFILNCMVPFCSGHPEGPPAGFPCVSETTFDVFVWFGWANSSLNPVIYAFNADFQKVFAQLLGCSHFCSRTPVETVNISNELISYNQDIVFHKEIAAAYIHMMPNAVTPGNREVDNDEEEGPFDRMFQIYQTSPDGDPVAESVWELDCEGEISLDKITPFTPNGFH
UniProt P21728, whole entry: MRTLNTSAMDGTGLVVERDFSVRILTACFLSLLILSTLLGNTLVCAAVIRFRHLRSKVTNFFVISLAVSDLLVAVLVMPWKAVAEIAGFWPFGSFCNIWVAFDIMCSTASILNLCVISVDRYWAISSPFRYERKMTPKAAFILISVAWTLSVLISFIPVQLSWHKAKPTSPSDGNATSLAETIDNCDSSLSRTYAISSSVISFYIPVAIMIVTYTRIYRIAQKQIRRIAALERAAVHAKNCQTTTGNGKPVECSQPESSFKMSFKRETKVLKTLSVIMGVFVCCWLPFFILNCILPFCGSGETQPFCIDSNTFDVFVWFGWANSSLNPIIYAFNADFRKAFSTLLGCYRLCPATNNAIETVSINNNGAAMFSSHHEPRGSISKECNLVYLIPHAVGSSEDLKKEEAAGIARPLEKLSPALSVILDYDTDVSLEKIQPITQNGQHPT

Legend:
Format in all cases: cell-based
[1] = molecular target: D(2) dopamine receptor (Homo sapiens, UniProt P14416); assay: Displacement of [3H]spiperone from human dopamine D2L receptor expressed in CHO cells by scintillation counting
[2] = molecular target: D(4) dopamine receptor (Homo sapiens, UniProt P21917); assay: Displacement of [3H]spiperone from human dopamine D4 receptor expressed in CHO cells by scintillation counting
[3] = molecular target: D(1B) dopamine receptor (Homo sapiens, UniProt P21918); assay: Displacement of [3H]SCH23390 from human dopamine D5 receptor expressed in CHO cells by scintillation counting
[4] = molecular target: D(1A) dopamine receptor (Homo sapiens, UniProt P21728); assay: Displacement of [3H]SCH23390 from human dopamine D1 receptor expressed in CHO cells by scintillation counting

Compound | Ki [1] | Ki [2] | Ki [3] | Ki [4]
Cc1ccccc1CC1c2ccc(O)cc2CCN1C (configuration not stated) |  | > 10 µM |  | 
CN1CCCc2cc(O)ccc2Cc2ccccc2C1 | > 10 µM |  |  | 

More lines, now with the values ahead:

Ki [1] | Ki [2] | Ki [3] | Ki [4] | Compound
> 10 µM |  |  |  | COc1ccc2c(c1)CCN1CCc3ccccc3C21 (configuration not stated)
> 10 µM |  |  |  | COc1ccc2c(c1)CCCN1Cc3ccccc3C21 (configuration not stated)
> 10 µM |  | > 10 µM | > 10 µM | CN1CCc2cc(O)ccc2CCc2ccccc2C1
